# PubChem BioAssay AID651821 (The Scripps Research Institute Molecular Screening Center, 2012)
# The list shows a part of the results, in another mix than the full data. Some salts or complexes appear as unconnected parts, following the source record. Active and inactive are the calls of the source.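 Rule for the calls: active = inhibition above the plate cutoff, the mean of all test compounds on that plate plus 3 SD (cut at about 35% in these data); inactive = the rest.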
# Test: small molecules binding CAG repeat RNA – biochemical, fluorescence, primary screen (AID 651821);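 note: 0% = DMSO alone and 100% = 100 µM mitoxantrone as full dye displacement; higher means more dye released from RNA so lower well fluorescence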
# Conditions: r(CAG) RNA repeat, TO-PRO-1 dye displacement fluorescence; at 3 µM; stronger effect = higher value
row,Structure (SMILES),inhibition
1,O=C1C(O)=C([N+](=O)[O-])C(=O)C(O)=C1[N+](=O)[O-],inactive: 4.73%
2,Cc1cc(C)cc(OP(C)(=O)Nc2cccc(C(F)(F)F)c2)c1 (configuration not stated),inactive: -5.8%
3,COc1ccccc1OP(C)(=O)Nc1ccc(C)c(C)c1 (configuration not stated),inactive: -2.12%
4,COc1ccc(OP(C)(=O)Nc2ccccc2Br)cc1 (configuration not stated),inactive: -6.11%
5,CP(=O)(OCCOc1ccccc1)OCCOc1ccccc1,inactive: -5.59%
6,CCCCCCCCCCCCCCCC1C[N+](C)(C)CCOP(C)(=O)O1 (configuration not stated),inactive: 9.71%
7,CP(=O)(Nc1ccc(Cl)cc1Cl)Oc1ccccc1 (configuration not stated),inactive: -8.73%
8,COc1ccccc1OP(C)(=O)Nc1ccc(Br)cc1 (configuration not stated),inactive: -4.41%
9,COc1ccc(OP(C)(=O)Nc2ccccn2)cc1 (configuration not stated),inactive: -3.21%
10,CN(C)CCOC(=O)C(O)(c1ccccc1)C1CCCC1 (configuration not stated),inactive: -3.24%
11,O=[N+]([O-])c1cc([N+](=O)[O-])c(Nc2ccccn2)c([N+](=O)[O-])c1,inactive: -1.08%
12,Cc1c(NP(C)(=O)Oc2ccc(C(C)C)cc2)c(=O)n(-c2ccccc2)n1C (configuration not stated),inactive: -6.58%
13,CP(=O)(Nc1ccccn1)Oc1ccccc1 (configuration not stated),inactive: -2.47%
14,COc1ccccc1OP(C)(=O)Nc1ccc(C)cc1C (configuration not stated),inactive: -5.44%
15,CCc1ccc(OP(C)(=O)O)cc1,inactive: -1.42%
16,CCN(CC)CC(O)COC(=O)C(O)(c1ccccc1)C1CCCCC1 (configuration not stated),inactive: -1.45%
17,COc1ccc(OP(C)(=O)Nc2ccc(Br)cc2)cc1 (configuration not stated),inactive: -4.19%
18,COc1ccccc1OP(C)(=O)Nc1c(C)n(C)n(-c2ccccc2)c1=O (configuration not stated),inactive: -4.4%
19,O=C(OCCCN1CCCC1)C(O)(c1ccccc1)C1CCCCC1 (configuration not stated),inactive: -5.45%

row,Structure (SMILES),inhibition
1,CP(=O)(Oc1ccccc1)N1CCOC1=O (configuration not stated),inactive: 4.58%
2,CCc1ccc(OP(C)(=O)Nc2cccnc2)cc1 (configuration not stated),inactive: -5.97%
3,CC(C)(C)c1ccc(OP(C)(=O)O)cc1,inactive: 0.08%
4,COc1ccccc1OP(C)(=O)Nc1ccccc1Br (configuration not stated),inactive: -4.44%
5,CP(=O)(Nc1ccc(Cl)cc1)Oc1ccc(F)cc1 (configuration not stated),inactive: -1.96%
6,CN(C)C(=O)c1c([N+](=O)[O-])cc([N+](=O)[O-])cc1[N+](=O)[O-],inactive: 1.24%
7,Nc1ccc2c(ccc3cccnc32)n1.O=[N+]([O-])c1cc([N+](=O)[O-])c(O)c([N+](=O)[O-])c1,inactive: 6.45%
8,CCOC(=O)c1ccc(NP(C)(=O)Oc2ccc(Cl)cc2)cc1 (configuration not stated),inactive: -7.89%
9,CP(=O)(OC12CC3CC(CC(C3)C1)C2)OC12CC3CC(CC(C3)C1)C2,inactive: -6.23%
10,COc1ccc(OP(C)(=O)Nc2cccc(Br)c2)cc1 (configuration not stated),inactive: 0.22%
11,CN(C)CCOC(=O)C(O)(c1ccccc1)C1CCCCC1 (configuration not stated),inactive: 3.41%
12,COc1ccc(NP(C)(=O)Oc2ccccc2OC)cc1 (configuration not stated),inactive: -2.16%
13,O=[N+]([O-])c1ccc(OP2(=O)COCCO2)cc1 (configuration not stated),inactive: -1.24%
14,Cc1cc(-c2cccc3ccccc23)c(C)cn1.O=[N+]([O-])c1cc([N+](=O)[O-])c(O)c([N+](=O)[O-])c1,inactive: -3.52%
15,O=[N+]([O-])c1cc([N+](=O)[O-])c(NCC2CCS(=O)(=O)C2)c([N+](=O)[O-])c1 (configuration not stated),inactive: 3%
16,Cc1c(C(c2ccc3c(c2)OCO3)c2c(C)n(C)n(-c3ccccc3)c2=O)c(=O)n(-c2ccccc2)n1C.O=[N+]([O-])c1cc([N+](=O)[O-])c(O)c([N+](=O)[O-])c1,inactive: -4.77%
17,CP(=O)(Nc1ccc(SC(F)(F)F)cc1)Oc1ccc(F)cc1 (configuration not stated),inactive: -1.78%
18,CCOP(C)(=S)SCC(=O)NC(C)(CC)C(=O)O (configuration not stated),inactive: 0.36%
19,CCOP(=O)(CC)OCC,inactive: 1.53%

row,Structure (SMILES),inhibition
1,CP(=O)(Nc1ccc2c(c1)OCCO2)Oc1ccccc1 (configuration not stated),inactive: -6.64%
2,Cc1ccccc1NP(C)(=O)Nc1ccccc1C,inactive: -7.14%
3,O=[N+]([O-])c1cc([N+](=O)[O-])c(C(F)(F)F)c([N+](=O)[O-])c1O,inactive: 8.46%
4,O=[N+]([O-])c1cc([N+](=O)[O-])c(Nc2ccc(Cl)cc2)c([N+](=O)[O-])c1,inactive: 6.22%
5,CP(=O)(Nc1ccccc1F)Oc1ccccc1 (configuration not stated),inactive: -1.9%
6,CC(C)c1ccc(OP(C)(=O)Nc2ccc(SC(F)(F)F)cc2)cc1 (configuration not stated),inactive: -6.53%
7,O=C(OC1CN2CCC1CC2)c1ccc([N+](=O)[O-])cc1 (configuration not stated),inactive: 2.9%
8,O=C(OCCN1CCN(CCOCc2ccccc2)CC1)C(O)(c1ccccc1)c1ccccc1,inactive: -8.29%
9,COc1ccc2c(c1O)-c1c(O)c(OC)cc3c1[C@H](C2)[N+](C)(C)CC3.O=[N+]([O-])c1cc([N+](=O)[O-])c([O-])c([N+](=O)[O-])c1[O-],inactive: -0.13%
10,CCN(CC)CCCNc1ccccc1[N+](=O)[O-].O=[N+]([O-])c1cc([N+](=O)[O-])c(O)c([N+](=O)[O-])c1,inactive: 1.88%
11,CCOC(=O)c1ccc(NP(C)(=O)Oc2ccc(F)cc2)cc1 (configuration not stated),inactive: -6.4%
12,COc1ccc(OP(C)(=O)Nc2ccc(SC(F)(F)F)cc2)cc1 (configuration not stated),inactive: -10.9%
13,Cc1c([N+](=O)[O-])cc([N+](=O)[O-])c(Br)c1[N+](=O)[O-],inactive: 1.88%
14,CCN(CC)CCCOC(=O)C(O)(c1ccccc1)C1CCCCC1 (configuration not stated),inactive: -3.98%
15,CP(=O)(Nc1ccccc1)Oc1ccc(F)cc1 (configuration not stated),inactive: 0.62%
16,CCCCCOc1ccc(NP(C)(=O)Oc2ccc(Cl)cc2Cl)cc1 (configuration not stated),inactive: -3.09%
17,O=[N+]([O-])c1cc([N+](=O)[O-])c(OC2CCCCC2O)c([N+](=O)[O-])c1 (configuration not stated),inactive: 1.87%
18,O=C(O)c1cccc(Nc2c([N+](=O)[O-])cc([N+](=O)[O-])cc2[N+](=O)[O-])c1,inactive: 0.76%
19,CC1=NCCc2c1[nH]c1ccccc21.O=[N+]([O-])c1cc([N+](=O)[O-])c(O)c([N+](=O)[O-])c1,inactive: 1.63%
